From US20260274913A1 (Amgen, published 2026)

Amino acid sequences for entries named in this document (tags omitted). Residues count along the entry.
UniProt Q9NP99, 21-205: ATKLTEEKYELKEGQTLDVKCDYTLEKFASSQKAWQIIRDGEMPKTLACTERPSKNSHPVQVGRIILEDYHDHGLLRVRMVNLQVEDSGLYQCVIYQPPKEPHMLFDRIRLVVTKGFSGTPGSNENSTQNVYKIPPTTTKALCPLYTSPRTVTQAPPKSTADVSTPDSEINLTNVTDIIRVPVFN
UniProt Q9NP99, 21-234 limits assumed: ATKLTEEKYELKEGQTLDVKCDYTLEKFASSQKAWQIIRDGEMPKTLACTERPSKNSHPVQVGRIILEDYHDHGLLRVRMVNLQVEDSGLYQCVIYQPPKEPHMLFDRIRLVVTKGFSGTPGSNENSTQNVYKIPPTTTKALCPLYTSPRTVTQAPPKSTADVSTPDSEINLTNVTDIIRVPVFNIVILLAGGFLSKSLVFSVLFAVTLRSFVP

T1: cyno TREM-1-His protein (cynomolgus monkey, UniProt A0A2K5VHG8 21-204)
T1 construct: extracellular domain; Soluble analyte of the Octet assay; not shown: His tag
T1 sequence: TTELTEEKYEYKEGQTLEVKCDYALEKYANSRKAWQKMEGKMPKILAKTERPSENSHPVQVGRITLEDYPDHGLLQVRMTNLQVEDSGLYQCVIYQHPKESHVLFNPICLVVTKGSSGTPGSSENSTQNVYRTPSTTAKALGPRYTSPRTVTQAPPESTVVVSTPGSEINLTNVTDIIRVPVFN

T2: cyno TREM-1 (cynomolgus monkey, UniProt A0A2K5VHG8 21-233)
T2 construct: whole, on cells; also called cynomolgus TREM-1
T2 sequence: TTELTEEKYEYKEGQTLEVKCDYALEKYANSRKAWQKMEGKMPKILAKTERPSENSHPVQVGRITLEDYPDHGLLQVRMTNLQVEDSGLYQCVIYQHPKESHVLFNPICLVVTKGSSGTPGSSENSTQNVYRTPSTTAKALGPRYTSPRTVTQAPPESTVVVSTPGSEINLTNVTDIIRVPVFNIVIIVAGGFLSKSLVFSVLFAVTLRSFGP


Legend:
[1] = molecular target: T3, recombinant soluble human TREM-1-His protein (human, UniProt Q9NP99 21-205, biotinylated in the bead assays of Tables 6 and 7 (sites not given)); assay: limiting antigen assay, biotinylated huTREM-1-His at 7.5 ng/ml on LumAvidin beads, antibody 5 ug/mL, flow cytometry
T3 construct: also called b-huTREM-1-His; biotinylated human TREM-1-His antigen; not shown: His tag

[2] = molecular target: T1, cyno TREM-1-His protein; assay: BLI (Octet HTX), antibody captured on anti-human Fc sensor, cyno TREM-1-His as analyte, 1:1 model
Method: (§1) Briefly, TREM-1 hybridoma supernatants normalized to 10 μg/mL in DMEM null media were prepared by diluting 1:10 in OCTET® assay buffer (10 mM Tris, 0.1% Triton X-100, 150 mM NaCl, 1 mM CaCl₂), 0.1 mg/mL BSA, at pH 7.6) to a final test concentration of 1 μg/mL. Amine reactive second-generation AR2G Biosensors (Molecular Devices) were pre-incubated in 200 μL nanopore water for a minimum of 10 minutes at room temperature before use. The AR2G Biosensors were then activated for 5 minutes in a solution of 20 mM EDC (1-Ethyl-3-[3-dimethylaminopropyl]carbodiimide hydrochloride) (ForteBio) pre-mixed with 10 mM NHS (N-hydroxysulfosuccinimide) (ForteBio) in nanopore water. An in-house generated mouse anti-human Fc monoclonal antibody was coupled to the AR2G Biosensors at 10 μg/mL in 10 mM sodium acetate buffer at pH 5 for 5 minutes, quenched with 1M ethanolamine at pH 8.5 for 5 minutes, and then used to capture antibody from solution. The TREM-1 test antibodies were loaded onto the Biosensors for 5 minutes, and baseline measurements were taken for 1 minute. […] The association of recombinant human TREM-1 with the antibody-loaded sensor was measured for 5 minutes, followed by dissociation in OCTET® buffer for 10 minutes. Biosensors were then regenerated with 10 mM glycine at pH 1.7, reloaded with the same TREM-1 antibodies on the same sensors for 5 minutes, and the same method was used to measure association and dissociation of cyno TREM-1-His protein. Data was referenced using a 0 nM analyte reference sensor. Kinetic analysis was performed using a 1:1 Langmuir model with mass transfer in Genedata Screener software.

[3] = molecular target: T4, human TREM-1 (human, UniProt Q9NP99 21-234); assay: flow cytometry competition, competitor PGLYRP1-His/PGN on HEK293 cells with human TREM1/DAP12, antibody 2.5 ug/mL
T4 construct: also called huTREM1; TREM-1 receptor

[4] = molecular target: T2, cyno TREM-1; assay: flow cytometry on HEK293 cells transfected with cyno TREM-1 and DAP12, supernatant 2.5 ug/mL, geomean fold over irrelevant control antibody
[5] = molecular target: T4, human TREM-1; assay: flow cytometry on HEK293 cells transfected with human TREM-1 and DAP12, supernatant 2.5 ug/mL, geomean fold over irrelevant control antibody
[6] = molecular target: T3, recombinant soluble human TREM-1-His …; assay: BLI (Octet HTX), antibody captured on anti-human Fc sensor, soluble human TREM-1-His as analyte, 1:1 model
Method: as §1

[7] = molecular target: T4, human TREM-1; assay: cell-based or functional assay

Binder	FACS Geomean [1]	koff [2] [s⁻¹]	kon [2] [M⁻¹ s⁻¹]	Receptor-ligand % inhibition [3] [%]	GM Fold [4] [fold]	GM Fold [5] [fold]	Kd [6] [pM]	koff [6] [s⁻¹]	kon [6] [M⁻¹ s⁻¹]	Ab IC50-Human PBMC (Trial 1), TNFα release induced by PGLYRP1/PGN [7] [pM]	Ab IC50-Human PBMC (Trial 2), TNFα release induced by PGLYRP1/PGN [7] [pM]	Kd [2] [pM]
50A12 (antibody, V domains shown) VH: EVQLVESGGGLVQPGGSLRLSCAASGFTFSSYWMSWVRQAPGKGLEWVANIKQDGSEEYYVDSVKGRFTISRDNAKNSLFLQMNSLRAEDTAVYYCARDYGDSFDYWGQGTLVTVSS VL: DIQMTQSPSSVSASVGDRVTITCRASQGIRKWLAWYQQKPGRAPKLLIYAASRLQSGVPSRFSGSGSGTDFTLTISSLRPEDFATYYCLQAHGFPWTFGQGTKVEIK	14600	0.00441	687000	100	2780	2420	4850	0.00252	519000	3.3	3.6	
30H2 (antibody, V domains shown, also called 19330) VH: EVQVLESGGGLVQPGESLRLSCTASGFTFNAYAMSWVRQAPGKGLEWVSTISGSGSTTYYADSVKGRFTISRDNSKNTLDLQMNSLRAADTAVYYCAKVAGSNFFFDHWGQGTLVTVSS VL: EIVMTQSPATLSVSPGERATLSCRASQSINSNLAWYQQKPGQAPRLLIYGAYTRATGIPDRFSGSGSGTEFTLTISSLQSEDFAVYYCQEFIMWPPWTFGLGTQVEIK	91700	0.00122	214000	101	76.9	108	898	0.000293	326000	6.9		
57C10 (antibody, V domains shown) VH: QVQLVQSGAEVKKPGASVKVSCKASGYTFTRYDINWVRQATGQGLEWMGWLNPNSGNTGQTQKFRGRVTMTRNTSINTAYMELSSLRSEDTAVYYCARGGYTSAWRWYFDLWGRGTLVTVSS VL: DIQMTQSPSSLSASVGDRVTITCQASQDINNHLNWYQQKPGKAPKLLIYDVSNLETGVPSSFSGSGCGTDFTFTISSLQPEDIATYFCQQYDKLPLTFGGGTKVEIE	28500	0.00024	187000	100	2430	1670	824	0.000251	304000	8.8	7.2	
66B8 (antibody, V domains shown) VH: QVQLVQSGAEVKKPGASVKVSCKASGYTFTGYYMHWVRQAPGQGLEWMGWFKPNSGVTNYAQKFQGRVTMSRDTSISTAYMELSSLRSDDTAVYYCARAGYSTSWKDWFDPWGQGTLVTVSS VL: DIQMTQFPSSVSASVGDRVTITCRASQGISRWLAWYQQKQGKAPKLLIYMVSSLQSGVPSRFSGSGSGTDFTLTISSLQPEDFATYYCQQSHNFPITFGQGTRLDIK	23800	0.000253	154000	85	1520	1630	7980	0.00136	171000	31.6		
49A2 (antibody, V domains shown, also called 19333) VH: EVQLVESGGGLVQPGGSLRLSCAASGFTFSSNWMSWVRQAPGKGLDWMASMKQDGSEIYYVDSVKGRFTISRDNAKNSLHLQMNSLRAEDTAVYYCVRGGWRFESWGQGALVTVSS VL: EIVMTQSPATLSVSPGERATLSCRASQSVSSNLAWYQQKSGQAPRLLIYGASIRATGIPARVSGSGSGTEFTFTISSLQSEDFAVYYCQQYKNWPLTLGGGTKVEIK	28300	0.00144	773000	100	2980	2220	767	0.000286	373000	3.1	3.3	

Binders with a lower Kd [6], results first:

FACS Geomean [1]	koff [2] [s⁻¹]	kon [2] [M⁻¹ s⁻¹]	Receptor-ligand % inhibition [3] [%]	GM Fold [4] [fold]	GM Fold [5] [fold]	Kd [6] [pM]	koff [6] [s⁻¹]	kon [6] [M⁻¹ s⁻¹]	Ab IC50-Human PBMC (Trial 1), TNFα release induced by PGLYRP1/PGN [7] [pM]	Ab IC50-Human PBMC (Trial 2), TNFα release induced by PGLYRP1/PGN [7] [pM]	Kd [2] [pM]	Binder
38000	0.00113	1.14e+06	100	2690	1910	457	0.000336	737000	6.3	4.4	993	46H7 (antibody, V domains shown, also called 19332) VH: EVQLLESGGGMVQPGGSLRLSCAVSGFTFSRYAMSWVRQAPGKGLEWVSEMRGSSGSTYYADSVKGRFTISRDNSKNTLYLQMNSLRVEDTAIYYCAKEFSSNSLFDYWGQGTLVTVSS VL: EIVMTQSPATLSVSPGERATLSCRASQSVNSNLAWYQQKPGRAPRLLIYGASTRATGIPARFSGSGSGTEFTLTISSLQSEDFAVYYCQQFYNWPPWTFGQGTKVEIK
24500	0.000353	519000	96	2150	1480	< 250	< 0.000176	705000	4.3	2.4		64D7 (antibody, V domains shown) VH: QVQLVQSGAEVKKPGASVKVSCKASGYTFTSYDINWVRQATGQGLEWMGWMNPNRGNTGYVKKFQGRVTMTRNTSISTAYMELSSLRSEDTAVYYCARRRAVYRSSWEWYFDLWGRGTLVTVSS VL: DTQMTQSPSSLSASEGDRVTITCQASQDIFNDLNWYQEKPGKAPKLLIYHASNLETGVPSRFSGSGSGTDYTFTISSLQPEDIATYYCQQYGNLPLTFGGGTKVEIK
36800	0.00152	751000	100	2240	1630	404	0.000182	451000	3.5	6.1		44A5 (antibody, V domains shown) VH: EVQLLESGGGLVQPGGSLRLSCAASGFTFSTYAMNWVRQAPGKGLEWVSTVSGSGRPTYYADSVKGRFTISRDNSKNTLYLQMNSLRAEDTAVYYCAKAYYSNYLFDYWGQGTLVTVSS VL: EIVMTQSPAILSVSPGERATLSCRASQSVSSNLAWYQQKPGQAPRLLIYGASTRATGVPARFSGGGSGTDFTLTISSLQSEDFAVYYCQHCKTWPPLTFGGGTKVDLK
25300	< 0.000176	607000	100	2340	719	< 281	< 0.000176	627000				57F5 (antibody, V domains shown) VH: EVQLLESGGGLVQPGGSLRLSCAASGFTFSSYAMTWVRQAPGRGLQWVSTISGSGSNTYYADSVKGRFTISRDNSKNTLYLQMSSLRAEDTAVYYCAKEGGSNRYFHHWGQGTLVTISS VL: DIQMTQSPSSLSASVGDRVTITCRASQSISSNLNWYQQKPGKAPKLLISAASNLQSGVPSRFSGSESGTDFTLTISSLQSEDFATYYCQQSDSLPLTFGGGTKVEIN
